The procedure of data set [1]: Mixed-gender human liver microsomes, male Sprague-Dawley rat liver microsomes, and male Beagle dog liver microsomes were purchased from XenoTech. The reaction mixture, minus NADPH, was prepared as described below. […] An aliquot of the reaction mixture (without cofactor) was equilibrated in a shaking water bath at 37° C. for 5 minutes. The reaction was initiated by the addition of cofactor, and the mixture was incubated in a shaking water bath at 37° C. Aliquots (200 μL) were withdrawn at 0, 10, 20, 30, and 60 minutes. Test article samples were immediately combined with 400 μL of ice-cold acetonitrile (ACN) to terminate the reaction. […] The samples were then mixed and centrifuged to precipitate proteins. Aliquots of the supernatant were removed, diluted 1:1 into distilled water containing internal standard, and analyzed by LC-MS/MS against calibration standards prepared in a matched matrix. All samples were analyzed for the dosed prodrugs as well as the drug, treprostinil. The test article concentration was compared to the concentration at time 0 to determine the percent of test article remaining at each time point. Half-lives and clearance were calculated using GraphPad software, fitting to a single-phase exponential decay equation.
• Liver Microsomes 0.5 mg/mL • NADPH (cofactor) 1 mM • Potassium Phosphate, pH 7.4 100 mM • Magnesium Chloride 5 mM • Test Article 1 μM

The procedure of data set [2]:
The pool of skin homogenate was prepared by combining equal volumes of three lots that were tested in the initial skin homogenate lot assessment experiments.
A stock solution of calcein-AM was first prepared at 5 mM in DMSO, followed by a serial dilution into methanol at a concentration of 100 μM. 495 μL of skin homogenate was thawed and warmed to 37° C. A 5 μL aliquot of the 100 μM calcein-AM solution was spiked into the skin homogenate, for a final calcein-AM dosing concentration of 1 μM. After briefly mixing, 150 μL aliquots were removed in triplicate and transferred to 96-well Falcon plates. The plates were placed onto a Thermomixer and maintained at 37° C., with gentle shaking for the duration of the experiment. At each time point (0, 15, 30, 60, and 120 minutes), the plate was removed from the Thermomixer and transferred to a FLUOstar® plate reader, and the formation of calcein (Sigma) was monitored by fluorescence (490/515 nm). Calibration standards of calcein were prepared in distilled water by serial dilutions of a calcein DMSO stock at final concentrations ranging from 1 μM to 1 nM. All samples and standards were read concurrently (Table 13).
For each of the test articles, 495 μL of skin homogenate was added to triplicate centrifuge tubes. […] The disappearance of each individual test article was monitored, as well as the formation of treprostinil (Table 14 and Table 15).
The source holds these as a separate data set.

How the values of data set [3] were obtained:
Mixed-gender human cryopreserved hepatocytes, male Sprague-Dawley rat cryopreserved hepatocytes, and male Beagle dog cryopreserved hepatocytes were purchased from XenoTech. The hepatocytes were thawed and prepared according to the vendor's instructions, pooled into Krebs Henseleit buffer (KHB, pH 7.4), and kept on ice prior to the experiments. […] The final DMSO content in the incubation mixture was ≤0.1%. […] Aliquots of the test article were withdrawn (n=1) at 0, 15, 30, 60, and 120 minutes. […] Aliquots of 7-HC were withdrawn (n=1) at 0 and 15 minutes. The reaction was immediately terminated by adding two volumes of ice-cold acetonitrile (ACN) to the test article samples and three volumes of ACN containing internal standard to the positive control samples. The samples were then mixed and centrifuged to precipitate proteins. An aliquot of the supernatant was then diluted with water and analyzed by LC-MS/MS against calibration standards prepared in a matched matrix. […] All test article samples were analyzed for the dosed prodrugs as well as the drug, treprostinil. The test article concentration was compared to the concentration at time 0 to determine the percent of test article remaining at each time point. Half-lives and clearance values were calculated using GraphPad software, fitting to a single-phase exponential decay equation.
The source holds these as a separate data set.

Data set [4] can be described thus: Plasma stability, human plasma. Type of data set: in vitro ADME. The conditions noted are these: 1 μM, 37° C. How it is done: (§1) Studies were carried out in mixed-gender human plasma male Sprague-Dawley rat plasma, and male Beagle dog plasma. All plasma was obtained from Bioreclamation and collected on K2EDTA. Plasma was adjusted to pH 7.4 prior to initiating the experiments. DMSO stocks were first prepared for the test articles. […] The vials were kept in a benchtop Thermomixer® for the duration of the experiment. […] Samples were stored at 4° C. until the end of the experiment. After the final time point was sampled, the plate was mixed and then centrifuged at 3000 rpm for 10 minutes.

Data set [5] is described as follows: Plasma stability, dog plasma. Type of data set: in vitro ADME, Beagle dog. The settings on record: 1 μM, 37° C. How it is done: as §1
Data set [6] is described as follows: Plasma stability, rat plasma. In kind it is in vitro ADME, Sprague-Dawley rat. The conditions noted are these: 1 μM, 37° C. How it is done:
as §1

Data set [7] in a line: Stability in simulated intestinal fluid. Type of data set: in vitro ADME. The settings on record: SIF pH 6.8 with pancreatin, 1 μM, 37° C. The protocol: Studies were carried out in simulated intestinal fluid (SIF). SIF was prepared by dissolving 6.8 g of KH2PO4 in 250 mL of water, mixing, and then adding 77 mL of 0.2 N NaOH and […] of water. […] DMSO stocks were first prepared for the test articles. […] The vials were kept in a benchtop Thermomixer® for the duration of the experiment. A separate tube was dosed for each time point in each matrix. […] Samples were mixed and then immediately stored at 4° C. until the end of the experiment. After the final time point was sampled, the plate was mixed and then centrifuged at 3000 rpm for 10 minutes.

Read-outs that look alike come from different tables or passages of the source.

The text below walks through data of patent publication US12491170B2, “Stable treprostinil prodrugs” (United Therapeutics Corporation, priority 2020, dated 2025).

`CCCCCC(O)CCC1C(OC)CC2Cc3c(cccc3OCC(=O)O)CC21` (stereo not shown) [LIII]: in data set [1], the “Trep Concentration 30 min” value worked out at 0.0236 µM. Also, in data set [2], the “Trep Concentration 120 min” value is 0.0171 µM.

Regarding `CCCCCC(CCC1C(O)CC2Cc3c(cccc3OCC(=O)O)CC21)OC(=O)c1ccc(O)cc1` (stereo not shown) [LXVIII], the “Trep Concentration 0 min” value in data set [1] worked out at 0.0171 µM. The “Trep Concentration (μM) 60 min” value in data set [3] stood at 0.195 µM.

With `CCCCCC(CCC1C(O)CC2Cc3c(cccc3OCC(=O)O)CC21)OC(=O)c1ccc(O)c(O)c1` (stereo not shown) [LXVI], the “Trep Concentration 20 min” value in data set [1] amounted to 0.0171 µM.

`CCCCCC(CCC1C(O)CC2Cc3c(cccc3OCC(=O)O)CC21)OC(=O)c1cccc(O)c1` (stereo not shown) [LX]: in data set [3], the “Trep Concentration (μM) 120 min” value was determined as 0.0117 µM.

On to `CCCCC[C@@H](CC[C@@H]1[C@H]2Cc3cccc(OCC(=O)O)c3C[C@H]2C[C@H]1O)OC(=O)[C@@H](N)C(C)C` [XXIX], for which, in data set [1], the “Trep Concentration 10 min” value was 0.0117 µM.

As to `CCCCCC(CCC1C(O)CC2Cc3c(cccc3OCC(=O)O)CC21)OC(=O)C(C)N` (stereo not shown) [XXXI], in data set [2], the “Trep Concentration 30 min” value came out at 0.112 µM.

Consider `CCCCCC(CCC1C(O)CC2Cc3c(cccc3OCC(=O)O)CC21)OC(=O)CCN` (stereo not shown) [XXXVII], for which, in data set [1], the “Trep Concentration 10 min” value amounted to 0.0171 µM.

Regarding treprostinil diacetate [Prodrug LXXII], the “Percent Remaining 30 min” value is 106% in data set [4], 102% in data set [5], 107% in data set [6] and 107% in data set [7].
